## Yeast mating assay B: variants of the scFv Ab-14

Source: Li et al. 2023 (doi:10.1038/s41467-023-39022-2), MIT Lincoln Laboratory and A-Alpha Bio; data file from the FLAb repository.

Binding partner: SARS-CoV-2 spike HR2 peptide, sequence PDVDLGDISGINAS.

Each scFv is VH, a 15-residue (Gly4Ser)3 linker, VL, as in the parent Ab-14, and differs from it in the CDRs of the light chain only.
VH: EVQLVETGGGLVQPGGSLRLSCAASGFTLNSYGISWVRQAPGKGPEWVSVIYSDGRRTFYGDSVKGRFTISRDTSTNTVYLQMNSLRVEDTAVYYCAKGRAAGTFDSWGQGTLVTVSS
VL: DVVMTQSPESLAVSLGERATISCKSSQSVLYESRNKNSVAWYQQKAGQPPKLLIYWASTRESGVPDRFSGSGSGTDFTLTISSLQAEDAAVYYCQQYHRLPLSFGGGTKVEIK

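The starting antibody came from a phage panning campaign against this peptide. This is the validation round: designs drawn from the data on random variants, tested in the same kind of assay. Their group label is 14L_En_HC (En: ensemble of fine-tuned language models; HC: hill climbing; a sequence that several methods proposed may carry one label only). The scFvs were displayed on barcoded MATa yeast, the peptide on MATalpha yeast. After mating in shaken culture at 30 °C for 16 h, diploids were selected and their barcode pairs sequenced. A regression on co-assayed BCL2-family reference pairs converts the normalised counts of each replicate to an apparent Kd. There are six technical replicates.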

The parent's light chain CDRs are KSSQSVLYESRNKNSVA, WASTRES, QQYHRLPLS; each variant's own CDRs replace them letter for letter.
The read-out is the apparent dissociation constant on a log10 scale (nM): the lower, the stronger.
"nd" marks a missing value. The strain was present, yet no cells mated with the target were sequenced in that replicate, which points to weak or no binding.
Values of this round are not directly comparable with the first-round values of the same sequences.
In the paper, a design with two or fewer of six values counts as a poor binder.
The parent sequence was in this pool as ten entries: three were never detected, three once, and four in most replicates, with averages from 0.34 to 2.37.
As a blank, each scFv also met three strains without target: over all light chain designs, 4% of these pairings were detected, typically at 2.64 and seldom below 1.59. The control count says in how many pairings with the empty strains this scFv gave a signal, with their mean in brackets.

CDR-L1	CDR-L2	CDR-L3	log10 Kd (nM) by replicate	empty controls
KIGQQVTYESTMRNAIA	QMTTREE	QQYHRLPLS	0.52 / 0.34 / 0.42 / 0.42 / 0.50 / 0.52	2 of 18 (2.97)
NSSGPMMFESRNKNSVA	HASTREN	QQYERLPLS	-0.07 / -0.20 / -0.34 / -0.39 / -0.47 / -0.13	1 of 18 (2.66)
TLGQSTLMESRNKNNVA	QMSTREK	QQYHRLPLS	0.21 / 0.14 / 0.15 / 0.05 / -0.16 / 0.18	2 of 18 (2.65)
MISQSFLIGMKAKNSVA	QTNTRFE	QQYDRLPLI	2.29 / 1.44 / 1.86 / 1.38 / 1.31 / nd	0 of 18
KISQLVNFEGKQKNSVA	QMSTRES	QQYDRLPLS	-0.12 / -0.36 / 0.08 / 0.20 / 0.25 / -0.48	0 of 18
TLGQSTLMETRNKNNVA	QMSTREK	QQYHRLPLS	0.48 / 0.74 / 0.19 / 0.36 / 0.49 / 0.16	0 of 18
MMSYGWLAGSRNKRNVA	DRETRES	QQYDRLPLS	0.22 / -0.05 / 0.03 / -0.21 / -0.06 / 0.28	0 of 18
TLTQSVGMESHTKNSVA	DLSTRGS	QQYHRLPLS	0.51 / 0.76 / 0.34 / 0.48 / 0.47 / 0.83	1 of 18 (2.59)
KLRQSTHIESFEKNNVA	EMTTRES	QSYDRLPLS	nd / nd / 0.18 / 1.61 / nd / nd	0 of 18
MMSQMFEGLSTSKNPVA	QVTTREE	QQYHRLPLS	1.34 / 1.68 / 2.06 / 1.51 / nd / 3.91	1 of 18 (2.48)
KLSMSYRVETEEKNSIA	ELVTRMS	QQYHRLPLS	3.64 / 2.12 / 2.18 / 1.72 / 2.23 / 2.39	2 of 18 (2.36)
KISQSILFMSGMNNAIA	QMEMREE	QQYHRLPLS	0.67 / 0.72 / 0.65 / 0.60 / 0.40 / 0.86	1 of 18 (2.11)
KLSVSTSYLSVNKNSVA	EMTTREN	QQYDRLPLS	0.79 / 0.51 / 0.56 / 0.58 / 0.63 / 1.16	5 of 18 (3.18)
KLSQMVNFFGHAINSVA	EMETREN	QQYDRLPLS	0.72 / 0.70 / 1.06 / 0.60 / 1.02 / 1.54	1 of 18 (2.34)
TVSQVHEMLSRNKNSVA	DMNTRED	QQYDRLPLS	0.38 / 0.12 / 0.28 / 0.24 / -0.18 / -0.02	0 of 18
KLSQLFYKESRNKNNVA	EMTTRMS	QCYDRLPLS	nd / 1.38 / nd / 0.44 / nd / 1.46	1 of 18 (1.71)
IISSVDAYESRNKNSIA	DQSTRGS	QQYDRLPLS	0.63 / 0.36 / 0.55 / 0.53 / 0.58 / 0.66	3 of 18 (2.99)
KLGDMVHTESRNKNSIA	DMRNRES	QQYYRLPLS	-0.28 / 0.16 / -0.24 / -0.04 / -0.12 / -0.06	0 of 18
KISFQYRFEQLSKNNIA	EVVTRLK	QQYHRLPLS	1.24 / 2.17 / 1.71 / 1.55 / 2.03 / 1.97	1 of 18 (2.55)
KLLQSVNYGSRALNSVA	QMETRED	QQYERLPLS	nd / nd / nd / nd / nd / nd	0 of 18
NFSQMVLTGSTLRNSVA	HANTRFE	QQYHRLPLI	0.24 / -0.08 / 0.03 / 1.40 / 1.50 / 0.33	0 of 18
ILSQSVMMGSHLKNSVA	QASTRFS	QQYHRLPLM	0.92 / 1.34 / 1.76 / 2.08 / 1.47 / 1.81	0 of 18
IISQVDAYESRNKNSIA	DQSTRGN	QQYDRLPLS	1.52 / 1.74 / 0.87 / 0.39 / 0.86 / 0.58	0 of 18
HLGQSTDLESVHKNSIA	DLMTRES	QQYHRLPLS	0.19 / 0.01 / -0.13 / -0.25 / -0.11 / 0.18	2 of 18 (3.12)
MFSQLTYTGARTRNAVA	QASTREN	QQYHHLPLS	0.57 / 0.53 / 1.24 / 0.44 / 0.01 / 0.72	1 of 18 (1.57)
HISMMVGTKGYRKNSVA	NAETRED	QQYHRLPLS	0.27 / 0.70 / 0.47 / 0.86 / 0.83 / 0.67	0 of 18
ALSQSVDLESVHKNSIA	DLMTRES	QQYHRLPLS	0.16 / 0.04 / -0.16 / -0.26 / -0.06 / 0.28	0 of 18
MISDLTMYGSVNKNSVA	DLSTRGS	QQYHRLPLS	0.00 / -0.09 / 0.24 / 0.12 / -0.28 / 0.26	0 of 18
KLSILGLHQSIDKKSIA	ERSTREN	QQYHRLPLS	0.51 / 0.61 / 0.47 / 0.60 / 0.59 / 0.72	1 of 18 (3.25)
KLSMVTNQEHKVKNSIA	EMVTREK	QQYDRLPLF	0.80 / 1.05 / 0.63 / 0.36 / 0.82 / 0.57	1 of 18 (2.04)
SLYDATGMESRNKNPIA	DVSTRPS	QQYDRLPLS	-0.05 / 0.25 / 0.93 / -0.16 / 0.07 / -0.69	0 of 18
KLSATYRYESQNKNNIA	EMSTRES	QCYHRLPLS	1.61 / 2.22 / 1.40 / 1.92 / 1.99 / 2.08	0 of 18
SIYDITGMESRNKNPIA	DVSTRPS	QQYDRLPLS	0.25 / 0.08 / 0.18 / 0.32 / 0.04 / 0.54	3 of 18 (2.72)
ILYDSVGTLSRNKHSVA	DNSTRES	QQYDRLPLS	nd / 0.97 / nd / nd / nd / 1.06	0 of 18
KLRQVTGYESYNKNSVA	QTSTRAQ	QDYHRLPLS	1.11 / 0.86 / 0.94 / 0.96 / 0.92 / 1.23	1 of 18 (2.73)
KIGGVTNGIMRSKNSVA	EQSTRED	QQYDRLPLS	0.09 / 0.31 / 0.28 / 0.61 / 0.27 / 0.45	0 of 18
ILSESVLTLSRNINSVA	DNSTRES	QQYDRLPLS	nd / 2.58 / 3.25 / 1.95 / 3.81 / 2.50	1 of 18 (2.71)
IFSQSVLMGNMTRNSVA	QASQRFN	QQYDRLPLI	1.41 / 1.52 / 1.80 / 1.55 / 1.54 / 2.77	0 of 18
KLGDMVHTESRNRNSIA	DMRTRES	QQYYRLPLS	-0.49 / -0.38 / -0.46 / -0.13 / -0.37 / 0.18	0 of 18
HISYSMQHLSKNKNNVA	NQQTRES	QQYHRLPLS	0.19 / 0.22 / 0.10 / 0.15 / -0.02 / 0.20	1 of 18 (2.49)
KLYQSVGTMSHNKDSIA	DMERRED	QQYHRLPLS	0.81 / 0.40 / 1.07 / 0.69 / 0.71 / 1.06	0 of 18
KISQMYRYEQQNHSSIA	EASTREE	QSYHRLPLS	nd / nd / nd / nd / 0.95 / nd	0 of 18
KIGGVTNGISRSKDSVA	EQSTRED	QQYDRLPLS	1.37 / 0.29 / 0.74 / 0.23 / 0.50 / 0.82	1 of 18 (1.75)

6 of these entries, quoted again:

CDR-L1	CDR-L2	CDR-L3	log10 Kd (nM) by replicate	empty controls
NSSGPMMFESRNKNSVA	HASTREN	QQYERLPLS	-0.07 / -0.20 / -0.34 / -0.39 / -0.47 / -0.13	1 of 18 (2.66)
KIGGVTNGISRSKDSVA	EQSTRED	QQYDRLPLS	1.37 / 0.29 / 0.74 / 0.23 / 0.50 / 0.82	1 of 18 (1.75)
HLGQSTDLESVHKNSIA	DLMTRES	QQYHRLPLS	0.19 / 0.01 / -0.13 / -0.25 / -0.11 / 0.18	2 of 18 (3.12)
KIGGVTNGIMRSKNSVA	EQSTRED	QQYDRLPLS	0.09 / 0.31 / 0.28 / 0.61 / 0.27 / 0.45	0 of 18
KLRQVTGYESYNKNSVA	QTSTRAQ	QDYHRLPLS	1.11 / 0.86 / 0.94 / 0.96 / 0.92 / 1.23	1 of 18 (2.73)
KISQSILFMSGMNNAIA	QMEMREE	QQYHRLPLS	0.67 / 0.72 / 0.65 / 0.60 / 0.40 / 0.86	1 of 18 (2.11)